# According to PubChem BioAssay AID2073 (Sanford-Burnham Center for Chemical Genomics, 2009):
# The chains behind the UniProt entries cited, without tags or fusion partners.
# UniProt Q00975, whole entry: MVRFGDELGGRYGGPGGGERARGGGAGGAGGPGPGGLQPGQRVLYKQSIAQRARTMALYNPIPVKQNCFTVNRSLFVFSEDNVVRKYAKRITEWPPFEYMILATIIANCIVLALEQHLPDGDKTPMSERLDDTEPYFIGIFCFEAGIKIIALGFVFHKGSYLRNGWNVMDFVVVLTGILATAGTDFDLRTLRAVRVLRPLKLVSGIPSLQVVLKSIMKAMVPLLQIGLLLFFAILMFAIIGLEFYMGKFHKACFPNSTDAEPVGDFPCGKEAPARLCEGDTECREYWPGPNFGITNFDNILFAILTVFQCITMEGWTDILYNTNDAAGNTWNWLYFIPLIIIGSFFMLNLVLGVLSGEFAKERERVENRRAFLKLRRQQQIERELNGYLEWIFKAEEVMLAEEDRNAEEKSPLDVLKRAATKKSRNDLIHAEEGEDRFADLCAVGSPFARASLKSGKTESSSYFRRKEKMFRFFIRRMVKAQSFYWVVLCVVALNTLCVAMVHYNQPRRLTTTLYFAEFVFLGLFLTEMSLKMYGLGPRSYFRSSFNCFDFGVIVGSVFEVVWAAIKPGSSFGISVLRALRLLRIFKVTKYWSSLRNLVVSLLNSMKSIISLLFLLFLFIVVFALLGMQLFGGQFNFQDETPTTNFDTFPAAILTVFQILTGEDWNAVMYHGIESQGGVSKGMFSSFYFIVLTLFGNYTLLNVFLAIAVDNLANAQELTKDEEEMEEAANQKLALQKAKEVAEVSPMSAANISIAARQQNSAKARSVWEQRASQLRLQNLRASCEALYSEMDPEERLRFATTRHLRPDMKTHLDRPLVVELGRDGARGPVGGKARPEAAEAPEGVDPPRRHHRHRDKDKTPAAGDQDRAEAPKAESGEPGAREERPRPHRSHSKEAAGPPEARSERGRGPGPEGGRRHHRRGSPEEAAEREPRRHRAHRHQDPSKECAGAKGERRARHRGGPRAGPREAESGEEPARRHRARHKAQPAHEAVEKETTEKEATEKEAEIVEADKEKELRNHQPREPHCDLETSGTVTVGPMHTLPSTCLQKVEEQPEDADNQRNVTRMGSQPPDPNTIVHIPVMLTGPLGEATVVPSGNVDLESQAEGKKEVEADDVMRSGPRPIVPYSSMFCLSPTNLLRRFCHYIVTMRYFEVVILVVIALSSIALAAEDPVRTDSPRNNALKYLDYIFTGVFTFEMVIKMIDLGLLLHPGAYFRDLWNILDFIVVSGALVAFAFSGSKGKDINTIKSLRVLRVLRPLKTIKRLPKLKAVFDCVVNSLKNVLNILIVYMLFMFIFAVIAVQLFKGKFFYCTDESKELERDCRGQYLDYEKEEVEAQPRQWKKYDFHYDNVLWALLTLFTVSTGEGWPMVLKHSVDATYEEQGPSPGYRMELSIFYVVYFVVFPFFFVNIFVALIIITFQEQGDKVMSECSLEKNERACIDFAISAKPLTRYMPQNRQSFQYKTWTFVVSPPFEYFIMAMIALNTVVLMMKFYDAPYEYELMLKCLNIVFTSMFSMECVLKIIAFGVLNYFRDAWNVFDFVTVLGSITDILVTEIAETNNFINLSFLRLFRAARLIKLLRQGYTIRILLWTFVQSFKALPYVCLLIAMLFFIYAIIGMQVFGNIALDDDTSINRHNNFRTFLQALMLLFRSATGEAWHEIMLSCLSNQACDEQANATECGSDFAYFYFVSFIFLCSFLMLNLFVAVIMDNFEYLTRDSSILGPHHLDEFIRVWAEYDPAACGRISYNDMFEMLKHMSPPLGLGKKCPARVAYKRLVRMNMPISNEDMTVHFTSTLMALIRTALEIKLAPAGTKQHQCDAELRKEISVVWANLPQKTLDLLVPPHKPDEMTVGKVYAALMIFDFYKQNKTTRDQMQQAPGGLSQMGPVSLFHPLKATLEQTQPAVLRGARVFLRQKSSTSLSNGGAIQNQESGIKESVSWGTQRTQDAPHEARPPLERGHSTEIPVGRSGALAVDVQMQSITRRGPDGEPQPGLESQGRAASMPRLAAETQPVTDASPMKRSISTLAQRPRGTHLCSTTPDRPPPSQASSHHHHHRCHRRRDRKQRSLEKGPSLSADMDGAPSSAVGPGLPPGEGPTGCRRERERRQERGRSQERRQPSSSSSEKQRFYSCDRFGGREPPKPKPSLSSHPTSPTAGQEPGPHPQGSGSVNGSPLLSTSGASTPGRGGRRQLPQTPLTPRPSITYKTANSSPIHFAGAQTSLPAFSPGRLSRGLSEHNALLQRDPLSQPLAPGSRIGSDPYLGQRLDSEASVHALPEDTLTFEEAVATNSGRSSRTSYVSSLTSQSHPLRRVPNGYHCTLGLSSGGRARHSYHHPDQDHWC
# The entries are a selection whose mix differs from that of the whole data set. Potency and affinity values are given separately. Some salts or complexes appear as unconnected parts, following the source record. Active and inactive are the calls of the source. No stated cut-off is given here; in the data, active means inhibition mostly above about 51% (no sharp cut-off); inconclusive means no clear call, values can overlap the other calls; inactive means mostly below about 53%.
# Biological target: Voltage-dependent N-type calcium channel subunit alpha-1B (Homo sapiens) (UniProt Q00975)
# Test: disruptors of CaV2.2 binding to Mint1 – biochemical, HTRF (AID 2073)
# Settings: HTRF protein-protein interaction, Mint1-CaV2.2; at 20 µM; stronger effect = higher value
row,SMILES,inhibition
1,CCc1ccc(OP(C)(=O)O)cc1,inactive: -0.4%
2,CP(=O)(Nc1ccccn1)Oc1ccccc1 (stereo not given),inactive: -4.1%
3,COc1ccccc1OP(C)(=O)Nc1ccc(C)cc1C (stereo not given),inactive: -6%
4,O=[N+]([O-])c1cc([N+](=O)[O-])c(Nc2ccccn2)c([N+](=O)[O-])c1,inactive: 5.9%
5,Cc1c(NP(C)(=O)Oc2ccc(C(C)C)cc2)c(=O)n(-c2ccccc2)n1C (stereo not given),inactive: 12.5%
6,CN(C)CCOC(=O)C(O)(c1ccccc1)C1CCCC1 (stereo not given),inactive: 4.8%
7,COc1ccc(OP(C)(=O)Nc2ccccn2)cc1 (stereo not given),inactive: 2%
8,COc1ccccc1OP(C)(=O)Nc1ccc(Br)cc1 (stereo not given),inactive: -10.4%
9,CP(=O)(OCCOc1ccccc1)OCCOc1ccccc1,inactive: 4.1%
10,CP(=O)(Nc1ccc(Cl)cc1Cl)Oc1ccccc1 (stereo not given),inactive: -7.6%
11,Cc1nc2ccc3ccccc3c2o1.O=[N+]([O-])c1cc([N+](=O)[O-])c(O)c([N+](=O)[O-])c1,inactive: -11.4%
12,COc1ccc(OP(C)(=O)Nc2ccccc2Br)cc1 (stereo not given),inactive: -3.6%
13,COc1ccccc1OP(C)(=O)Nc1ccc(C)c(C)c1 (stereo not given),inactive: -4%
14,Cc1cc(C)cc(OP(C)(=O)Nc2cccc(C(F)(F)F)c2)c1 (stereo not given),inactive: 11.9%
15,CP(=O)(OC12CC3CC(CC(C3)C1)C2)OC12CC3CC(CC(C3)C1)C2,inactive: -10.9%
16,CCOC(=O)c1ccc(NP(C)(=O)Oc2ccc(Cl)cc2)cc1 (stereo not given),inactive: 2.1%
17,CN(C)C(=O)c1c([N+](=O)[O-])cc([N+](=O)[O-])cc1[N+](=O)[O-],inactive: -10.9%
18,CP(=O)(Nc1ccc(Cl)cc1)Oc1ccc(F)cc1 (stereo not given),inactive: -0.7%
19,CC(C)(C)c1ccc(OP(C)(=O)O)cc1,inactive: 1.9%
20,COc1ccccc1OP(C)(=O)Nc1ccccc1Br (stereo not given),inactive: -0.5%
21,CP(=O)(Oc1ccccc1)N1CCOC1=O (stereo not given),inactive: 1%
22,CCc1ccc(OP(C)(=O)Nc2cccnc2)cc1 (stereo not given),inactive: -0.8%

row,SMILES,inhibition
1,COc1ccccc1OP(C)(=O)Nc1c(C)n(C)n(-c2ccccc2)c1=O (stereo not given),inactive: -5.5%
2,O=C(OCCCN1CCCC1)C(O)(c1ccccc1)C1CCCCC1 (stereo not given),inactive: 6.3%
3,CCN(CC)CC(O)COC(=O)C(O)(c1ccccc1)C1CCCCC1 (stereo not given),inactive: -1.5%
4,COc1ccc(OP(C)(=O)Nc2ccc(Br)cc2)cc1 (stereo not given),inactive: -1.1%
5,Cc1ccccc1NP(C)(=O)Nc1ccccc1C,inactive: 1.7%
6,CP(=O)(Nc1ccc2c(c1)OCCO2)Oc1ccccc1 (stereo not given),inactive: 7.5%
7,CCOP(C)(=S)SCC(=O)NC(C)(CC)C(=O)O (stereo not given),inactive: -1.8%
8,CP(=O)(Nc1ccc(SC(F)(F)F)cc1)Oc1ccc(F)cc1 (stereo not given),inactive: -10.4%
9,O=[N+]([O-])c1cc([N+](=O)[O-])c(NCC2CCS(=O)(=O)C2)c([N+](=O)[O-])c1 (stereo not given),inactive: 6.6%
10,Cc1cc(-c2cccc3ccccc23)c(C)cn1.O=[N+]([O-])c1cc([N+](=O)[O-])c(O)c([N+](=O)[O-])c1,inactive: -0.6%
11,O=[N+]([O-])c1ccc(OP2(=O)COCCO2)cc1 (stereo not given),inactive: 0.1%
12,COc1ccc(NP(C)(=O)Oc2ccccc2OC)cc1 (stereo not given),inactive: -11.8%
13,CN(C)CCOC(=O)C(O)(c1ccccc1)C1CCCCC1 (stereo not given),inactive: 3.9%
14,COc1ccc(OP(C)(=O)Nc2cccc(Br)c2)cc1 (stereo not given),inactive: -2%
15,O=[N+]([O-])c1cc([N+](=O)[O-])c(OC2CCCCC2O)c([N+](=O)[O-])c1 (stereo not given),inactive: -4%
16,CCCCCOc1ccc(NP(C)(=O)Oc2ccc(Cl)cc2Cl)cc1 (stereo not given),inactive: 1.2%
17,CP(=O)(Nc1ccccc1)Oc1ccc(F)cc1 (stereo not given),inactive: 0.9%
18,CCN(CC)CCCOC(=O)C(O)(c1ccccc1)C1CCCCC1 (stereo not given),inactive: -2%
19,COc1ccc(OP(C)(=O)Nc2ccc(SC(F)(F)F)cc2)cc1 (stereo not given),inactive: -2.5%
20,CCOC(=O)c1ccc(NP(C)(=O)Oc2ccc(F)cc2)cc1 (stereo not given),inactive: 0.7%
21,COc1ccc2c(c1O)-c1c(O)c(OC)cc3c1[C@H](C2)[N+](C)(C)CC3.O=[N+]([O-])c1cc([N+](=O)[O-])c([O-])c([N+](=O)[O-])c1[O-],inactive: 8.8%
22,O=C(OCCN1CCN(CCOCc2ccccc2)CC1)C(O)(c1ccccc1)c1ccccc1,inactive: -10.6%

row,SMILES,inhibition
1,O=C(OC1CN2CCC1CC2)c1ccc([N+](=O)[O-])cc1 (stereo not given),inactive: -10.1%
2,CC(C)c1ccc(OP(C)(=O)Nc2ccc(SC(F)(F)F)cc2)cc1 (stereo not given),inactive: 3.8%
3,CP(=O)(Nc1ccccc1F)Oc1ccccc1 (stereo not given),inactive: 5.4%
4,CP(=O)(Nc1cccc(Br)c1)Oc1ccccc1 (stereo not given),inactive: -21.2%
5,Cc1cc(C)cc(OP(C)(=O)Nc2ccccn2)c1 (stereo not given),inactive: -6.1%
6,Cc1ccc(C)c(NP(C)(=O)Oc2ccccc2)c1 (stereo not given),inactive: 4.7%
7,Cc1cc(C)cc(OP(C)(=O)Nc2ccc(C)cc2C)c1 (stereo not given),inactive: -3.5%
8,CCOC(=O)c1ccc(NP(C)(=O)Oc2cc(C)cc(C)c2)cc1 (stereo not given),inactive: 1.1%
9,COc1ccccc1OP(C)(=O)Nc1cccc(Br)c1 (stereo not given),inactive: -5.8%
10,CC1=NCCc2c1[nH]c1ccccc21.O=[N+]([O-])c1cc([N+](=O)[O-])c(O)c([N+](=O)[O-])c1,inactive: 23.2%
11,O=C(O)c1cccc(Nc2c([N+](=O)[O-])cc([N+](=O)[O-])cc2[N+](=O)[O-])c1,inactive: -10%
12,CP(=O)(Nc1ccc(SC(F)(F)F)cc1)Oc1ccccc1 (stereo not given),inactive: 0.7%
13,CCCOc1ccc(NP(C)(=O)Oc2ccc(Cl)cc2)cc1 (stereo not given),inactive: -6%
14,COc1ccccc1OP(C)(=O)Nc1c(C)cccc1C (stereo not given),inactive: 16.8%
15,CN1CCCCC1COC(=O)C1(O)c2ccccc2CCc2ccccc21 (stereo not given),inactive: -5.4%
16,O=[N+]([O-])c1cc([N+](=O)[O-])c(Nc2nnnn2CCO)c([N+](=O)[O-])c1,inactive: 6%
17,CCOC(=O)C(CC)C1=NC(C)(C)Cc2ccccc21.O=[N+]([O-])c1cc([N+](=O)[O-])c(O)c([N+](=O)[O-])c1 (stereo not given),inactive: -1.3%
18,Cc1nc2ccc3ccccc3c2s1.O=[N+]([O-])c1cc([N+](=O)[O-])c(O)c([N+](=O)[O-])c1,inactive: -3.7%
19,O=[N+]([O-])c1cc([N+](=O)[O-])c(-n2nnc3ccccc32)c([N+](=O)[O-])c1,inactive: 0.2%
20,CP(=O)(Nc1ccccn1)Oc1ccc(Cl)cc1 (stereo not given),inactive: 0.9%
21,CCOP(C)(=S)SCC(=O)NC(C)C(=O)O (stereo not given),inactive: 7.3%
22,CCOC(=O)c1ccc(NP(C)(=O)Oc2ccc(OC)cc2)cc1 (stereo not given),inactive: -6.5%

row,SMILES,inhibition
1,CCc1ccc(OP(C)(=O)N2CCN(c3ccc([N+](=O)[O-])cc3)CC2)cc1 (stereo not given),inactive: -5.3%
2,CP(=O)(NC(=O)Nc1ccccc1)Oc1ccccc1 (stereo not given),inactive: -1.3%
3,Cc1cc(C)cc(OP(C)(=O)Nc2ccc(SC(F)(F)F)cc2)c1 (stereo not given),inactive: -2.9%
4,Cc1cccc(C)c1OP(C)(=O)Nc1ccc(SC(F)(F)F)cc1 (stereo not given),inactive: 3.5%
5,CP(=O)(Nc1ccc(SC(F)(F)F)cc1)Oc1ccc(Cl)cc1 (stereo not given),inactive: -8.1%
6,CP(=O)(Oc1ccccc1)OC(c1ccccc1)C(F)(F)F (stereo not given),inactive: -18.1%
7,COc1ccccc1OP(C)(=O)Nc1ccccc1 (stereo not given),inactive: 12.4%
8,CP(=O)(Nc1ccccc1Br)Oc1ccccc1 (stereo not given),inactive: 1%
9,CP(=S)(Nn1cnnc1)Oc1ccccc1 (stereo not given),inactive: -0.9%
10,COc1ccccc1OP(C)(=O)Nc1cc(Cl)ccc1C (stereo not given),inactive: -4.7%
11,COc1ccc(OP(C)(=O)Nc2cccc(F)c2)cc1 (stereo not given),inactive: 8.4%
12,Cc1cc(C)cc(OP(C)(N)=O)c1 (stereo not given),inactive: -7%
13,CCOC(=O)c1ccc(NP(C)(=O)Oc2ccccc2)cc1 (stereo not given),inactive: 4.5%
14,COc1ccccc1OP(C)(=O)Nc1ccc(C)cc1 (stereo not given),inactive: -0.9%
15,Cc1ccc(NP(C)(=O)Oc2ccccc2)c(C)c1 (stereo not given),inactive: -0.6%
16,CC(C)(C)c1ccc(OP(C)(=O)Nc2ccc(SC(F)(F)F)cc2)cc1 (stereo not given),inactive: 41.9%
17,Cc1cccc(C)c1OP(C)(N)=O (stereo not given),inactive: -1.6%
18,O=[N+]([O-])c1ccc2c(c1)C=Nc1ccccc1O2,inactive: 15.7%
19,CCN(CC)CCCOC(=O)C(O)(c1ccccc1)c1ccccc1,inactive: -2.3%
